# According to paper PMC3578765 (PLoS Neglected Tropical Diseases, 2013):
# Assays:
# [1] = system: BR DEN2 01-01 infection of Huh-7.5; test: assay validation with reference compounds, 10-pt DRC of percent infection; format: cell-based, Dengue virus; conditions: percent infection normalized against DENV2-infected Huh-7.5, M.O.I. 0.5
# Experimental: An immunofluorescence assay (IFA) used to detect dengue infection was optimized for the dengue HT/HCA. Briefly, cells were fixed with 4% (w/v) paraformaldehyde (PFA) for 20 min at room temperature (Rm T). PFA-fixed cells were treated with 0.25% (v/v) Triton-X for 20 min at Rm T. DENV-infected cells were detected by probing with 4G2 mAb prepared in blocking buffer: DPBS containing 5% FBS for 30 min at 37°C, followed by AlexaFluor-conjugated goat anti-mouse IgG (H+L) (Invitrogen Molecular Probes, USA) prepared in blocking buffer for 30 min at 37°C. Cell nuclei counterstained with 5 µg/mL 4′,6-diamidino-2-phenylindole (DAPI, Sigma-Aldrich, USA). Two washing cycles of DPBS was done after each step of the IFA. After the final washing, digital images were acquired using a high-throughput confocal fluorescence imaging system (Evotec Technologies High-Throughput Cell Analyzer Opera, Perkin Elmer, USA). The digital images were taken from 3 different fields of each well at 20× magnification.
# Acquired images were analyzed using our in-house developed image-mining platform (IM). This platform is designed to do high-content screening and directly access the database of images that were sequentially analyzed with specially designed algorithms developed as a customized plug-in to the IM platform. The results of all the analyses were stored in a centralized database. […]
# Huh-7.5 = test: assay validation with reference compounds, percent cell number in DENV2-infected Huh-7.5; conditions: concentration at or above EC50, compared with MOCK-infected Huh-7.5
# Experimental: Acquired images were analyzed using our in-house developed image-mining platform (IM). This platform is designed to do high-content screening and directly access the database of images that were sequentially analyzed with specially designed algorithms developed as a customized plug-in to the IM platform. The results of all the analyses were stored in a centralized database. […] To define the percentage of dengue-infected cells and, conversely the non-infected cells, a modified watershed method was applied. […]
# In both validation experiments, Huh-7.5 was mixed with DENV1, DENV2, DENV3 or DENV4 at a M.O.I. of 0.5 or VM only for MOCK-infection and dispensed in designated wells using the Thermo Scientific WellMate automated liquid dispenser. For the first validation experiment, the statistical reliability of the dengue HT/HCA was determined by calculating the Z'-factor for the percent infection or percent inhibition. Briefly, the Z'-factor of a defined parameter is calculated using the formula: 1−[(3σp+3σn)/(|μp−μn|)], where the μp, μn, σp and σn are the means (μ) and standard deviations (σ) of the positive (p) and negative (n) controls. […] Percent infection, percent inhibition, and percent cell number were determined using the customized IM platform plug-in. […]
substance,measurement,setting,value
"IFNαA, Human: recombinant human Interferon-αA (IFN-α2A), Sigma-Aldrich, positive control",IC50,[1],232.6 U/mL
same,cell number / cell toxicity at EC50,Huh-7.5,higher cell numbers compared with MOCK-infected Huh-7.5
